Some of these compounds have results that are not shown, active ones among them.

The nature of this data set: passive permeability, PAMPA, ADME assay (AID 1508612). To be noted: pH 7.4, 30.0 min, 50.0 µM.

With `O=C(C1CCC1)N1CCN(C/C=C/c2ccccc2)CC1`, the Papp is greater than 1000 ×10⁻⁶ cm/s.

As a reminder, the Papp is a coefficient for how fast a substance crosses the barrier. Low values mean poor permeation, high ones ready permeation.
